This passage reports IC50 results from US8778935B2 (Centro Nacional de Investigaciones Oncologicas (CNIO), priority 2009, dated 2014).

Chains of the proteins cited; added tags and fusions are not shown.
UniProt P42336, whole entry: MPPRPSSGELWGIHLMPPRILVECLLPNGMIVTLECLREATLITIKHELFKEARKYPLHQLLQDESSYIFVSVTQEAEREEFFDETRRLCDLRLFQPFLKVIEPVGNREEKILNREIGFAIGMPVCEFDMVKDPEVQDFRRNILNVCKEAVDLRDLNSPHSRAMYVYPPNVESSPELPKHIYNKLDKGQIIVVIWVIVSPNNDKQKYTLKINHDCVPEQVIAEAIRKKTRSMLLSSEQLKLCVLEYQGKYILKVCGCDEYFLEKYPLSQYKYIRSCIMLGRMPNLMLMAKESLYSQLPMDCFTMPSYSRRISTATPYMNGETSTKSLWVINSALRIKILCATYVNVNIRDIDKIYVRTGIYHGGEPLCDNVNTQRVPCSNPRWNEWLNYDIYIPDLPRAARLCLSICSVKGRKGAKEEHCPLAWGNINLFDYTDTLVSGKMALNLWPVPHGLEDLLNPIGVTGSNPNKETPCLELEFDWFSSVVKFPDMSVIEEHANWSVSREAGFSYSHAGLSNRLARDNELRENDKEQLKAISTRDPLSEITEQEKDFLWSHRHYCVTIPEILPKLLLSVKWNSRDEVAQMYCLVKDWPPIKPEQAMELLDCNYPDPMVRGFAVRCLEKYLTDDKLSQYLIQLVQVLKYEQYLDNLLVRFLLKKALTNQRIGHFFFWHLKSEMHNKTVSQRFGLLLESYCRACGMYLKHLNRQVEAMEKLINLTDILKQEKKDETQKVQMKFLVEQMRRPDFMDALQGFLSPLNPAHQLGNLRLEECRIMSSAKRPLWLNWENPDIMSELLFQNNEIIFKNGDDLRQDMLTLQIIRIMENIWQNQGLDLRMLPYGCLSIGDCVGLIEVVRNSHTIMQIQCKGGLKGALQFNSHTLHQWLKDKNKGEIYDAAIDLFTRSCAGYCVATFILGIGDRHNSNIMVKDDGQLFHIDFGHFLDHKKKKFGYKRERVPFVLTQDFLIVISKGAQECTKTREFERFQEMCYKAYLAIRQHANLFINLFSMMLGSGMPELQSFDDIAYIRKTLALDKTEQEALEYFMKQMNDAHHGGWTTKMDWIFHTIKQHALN
UniProt P27986, whole entry partner: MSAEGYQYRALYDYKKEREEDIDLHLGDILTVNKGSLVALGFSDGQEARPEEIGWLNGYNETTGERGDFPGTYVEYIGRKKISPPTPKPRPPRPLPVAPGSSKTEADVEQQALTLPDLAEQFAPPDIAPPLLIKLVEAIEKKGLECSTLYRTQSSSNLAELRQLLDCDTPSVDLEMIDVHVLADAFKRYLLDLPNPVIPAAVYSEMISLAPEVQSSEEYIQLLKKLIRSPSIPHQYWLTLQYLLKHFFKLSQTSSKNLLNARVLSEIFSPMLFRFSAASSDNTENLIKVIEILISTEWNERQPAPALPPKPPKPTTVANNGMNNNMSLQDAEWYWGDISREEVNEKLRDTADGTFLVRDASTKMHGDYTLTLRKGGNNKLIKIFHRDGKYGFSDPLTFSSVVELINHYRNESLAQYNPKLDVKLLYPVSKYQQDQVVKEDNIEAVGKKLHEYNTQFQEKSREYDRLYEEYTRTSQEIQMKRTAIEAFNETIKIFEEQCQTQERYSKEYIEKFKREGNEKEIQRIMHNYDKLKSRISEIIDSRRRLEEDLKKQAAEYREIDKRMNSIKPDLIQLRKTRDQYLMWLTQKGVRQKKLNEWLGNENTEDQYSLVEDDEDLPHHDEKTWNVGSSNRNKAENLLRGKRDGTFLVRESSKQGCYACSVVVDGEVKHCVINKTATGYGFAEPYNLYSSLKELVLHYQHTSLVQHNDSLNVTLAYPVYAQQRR

What is called IC50 is the concentration needed to halve the response being measured.

The assay deals with PI3K (p110α/p85α) (Homo sapiens, UniProt P42336). The assay can be described thus: PI3K Activity Assay (ADP Hunter Plus). The following applies: read-out: PI3Kα IC50; quantitative results of Table 4. The format is biochemical.

For `CS(=O)(=O)N1CC2(CCN(Cc3cn4cc(-c5cccc6[nH]ncc56)nc(N5CCOCC5)c4n3)CC2)C1`, the IC50 came out at 3000 nM.
